Series [1] in a line: FXa chromogenic activity of rFX variants after activation with TF-FVIIa. The series is classed as biochemical. As to the method: The FX mutants were generated using the Quick-change site-directed mutagenesis kit (Stratagene) and the entire FX cDNA was sequenced to verify the identity of the product. The various plasmids were transiently transfected into HEK 293 cells using Lipofectamine-2000. 48 hr post-transfection, media was collected and FX antigen levels were determine using a FX-specific ELISA and FXa activity was assessed by chromogenic assay prior to activation by RVV-X or by tissue factor-FVIIa.

Sequences of proteins named here, by UniProt entry; tags and fusion partners are left off. Residues count along the entry.
UniProt P01008, 33-464, species assumed: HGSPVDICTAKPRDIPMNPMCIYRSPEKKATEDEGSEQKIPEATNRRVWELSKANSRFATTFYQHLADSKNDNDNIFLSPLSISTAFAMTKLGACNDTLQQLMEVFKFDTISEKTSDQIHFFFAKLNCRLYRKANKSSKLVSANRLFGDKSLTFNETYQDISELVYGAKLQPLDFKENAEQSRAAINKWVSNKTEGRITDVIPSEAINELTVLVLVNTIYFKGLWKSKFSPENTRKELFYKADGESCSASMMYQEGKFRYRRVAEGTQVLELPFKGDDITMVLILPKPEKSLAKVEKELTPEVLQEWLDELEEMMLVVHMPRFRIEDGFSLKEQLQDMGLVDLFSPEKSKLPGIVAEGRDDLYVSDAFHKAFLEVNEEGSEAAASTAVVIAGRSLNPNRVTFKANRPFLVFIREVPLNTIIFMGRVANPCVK

Series [2] in a line: Inhibition of FXa and prothrombinase by para-amino benzamidine. The series is classed as biochemical. To be noted: read-out: Ki ± SD Para-amino benzamidine. An excerpt:
(§1) Enzyme concentrations will be determined by active-site titration with ρ-nitrophenyl ρ-guanidinobenzoate (IIa) or fluorescein mono-ρ-guanidinobenzoate (FXa) (26, 27). FXa chromogenic substrate activity, in the presence or absence of various inhibitors, will be measured from initial rates of hydrolysis of Spectrozyme FXa, S-2222, or S-2765 as previously described (14). Kinetic parameters will be determined by least-squares fitting of the initial rate data to appropriate equations.

Another series has as its target Antithrombin III (Homo sapiens, UniProt P01008). Description: Inhibition of FXa and prothrombinase by Antithrombin III. In kind it is biochemical.
Source text: as §1

Series [3] has as its system hemophilia B plasma. Put plainly: aPTT clotting time of hemophilia B plasma spiked with FXa. The series is classed as biochemical. To be noted: 0.1 nM in hemophilia B plasma. As to the method: (§2) Based on the observation that the zymogen-like FXa derivatives have poor reactivity with active-site directed probes and inhibitors in the absence of FVa, but apparently near normal activity when the variants are assembled in prothrombinase, we next evaluated the activity of FXaI16L (FXaI235L) in a plasma environment. Hemophilic A (data not shown) or B plasma was spiked with wild-type FXa to correct the clotting time (aPTT) of these plasmas; 0.1 nM wtFXa gave a clotting time of ˜32 sec. […] Next we monitored the half-life of wild-type FXa and FXaI16L (FXaI235L) in hemophilia B plasma. The proteins were added to HB plasma and at different time points, an aliquot of the mixture was withdrawn and assayed in an aPTT-based assay. […] Similar results were found with hemophilia A plasma.

Series [4] has as its system hemophilia B plasma. Put plainly: Half-life of FXa activity in hemophilia B plasma (aPTT-based assay). In kind it is in vitro ADME. Particulars: 2 nM. On the procedure:
FIG. 6. Factor Xa activity in hemophilia B plasma. Wild-type FXa or FXaI16L (2 nM) were added to hemophilia B plasma and at select time intervals the samples were diluted (0.1 nM) and assayed in an aPTT clotting assay.
as §2

Where two headings read alike, the source gives them in different places.

On to “rFXa^I16L: factor X/Xa variant, Ile16 (position 235 in SEQ ID NO: 1) replaced by Leu”, for which the “FXa Activity” value in series [1] (activation of FX with TF-FVIIa, compared to FXa standard curve) came out at 0.572 nM. Also, in series [1] (activation with TF-FVIIa, adjusted for antigen levels), the “% wt (FXa activity)” value is given as 6.57%. The results for the Ki in series [2] (Prothrombinase) and in series [2] (free Factor Xa) were 143 ± 9 µM and 726 ± 40 µM, respectively. Also, the figures for the “k2 ± SD Antithrombin III” value with Antithrombin III (Prothrombinase) and with Antithrombin III (free Factor Xa) were 0.09 ± 0.003 M^−1 s^−1 × 10^3 and 0.06 ± 0.001 M^−1 s^−1 × 10^3, respectively. In addition, in the series on hemophilia B plasma [3], the “clotting time (aPTT)” value was approximately 42 s. Also, in the series with hemophilia B plasma [4], the estimated half-life was more than 2 h.

As usually defined, the Ki is a dissociation constant, usually derived from enzyme kinetics or from competition with a known ligand.

The values above are taken from patent US9410137B2, “Compositions and methods for modulating hemostasis” (The Children's Hospital of Philadelphia, priority 2005, dated 2016).
